Measured values taken from patent publication US12384813B2, “Polymer linked multimers of guanosine-3′, 5′-cyclic monophosphates” (MIRECA MEDICINES GMBH, priority 2016, dated 2025).

Target: T1, PKG Iβ (Homo sapiens, UniProt Q13976)
T1 construct: made in house; host or cells: Sf9 cells
T1 sequence (Q13976 1-686 isoform Q13976-2): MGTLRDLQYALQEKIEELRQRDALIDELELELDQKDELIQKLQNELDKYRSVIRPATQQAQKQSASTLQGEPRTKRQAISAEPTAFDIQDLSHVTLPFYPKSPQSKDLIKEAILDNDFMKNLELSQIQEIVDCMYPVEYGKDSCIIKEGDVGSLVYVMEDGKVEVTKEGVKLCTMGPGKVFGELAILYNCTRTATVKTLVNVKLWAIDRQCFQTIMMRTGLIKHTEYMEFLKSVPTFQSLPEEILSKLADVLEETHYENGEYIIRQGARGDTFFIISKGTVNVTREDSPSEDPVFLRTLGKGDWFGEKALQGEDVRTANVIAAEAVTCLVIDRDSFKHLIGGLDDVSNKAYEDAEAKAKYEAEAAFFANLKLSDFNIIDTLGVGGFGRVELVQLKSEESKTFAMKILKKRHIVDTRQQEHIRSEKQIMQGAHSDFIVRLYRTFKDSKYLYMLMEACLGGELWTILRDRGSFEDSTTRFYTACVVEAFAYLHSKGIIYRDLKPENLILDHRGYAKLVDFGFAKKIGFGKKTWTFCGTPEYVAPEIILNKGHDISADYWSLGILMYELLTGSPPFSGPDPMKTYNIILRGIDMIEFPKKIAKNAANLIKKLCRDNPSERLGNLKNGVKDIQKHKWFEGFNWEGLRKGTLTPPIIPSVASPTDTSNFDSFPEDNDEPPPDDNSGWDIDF
Test: In vitro activation of PKG Iβ, ADP-Glo Kinase Assay (luminescence), VASPtide substrate
Assay type: biochemical
Details: PKG Iβ 0.15 nM, room temperature, 60 min; measurable up to 2832-fold

SMILES: O=c1c2nc(SCCn3cc(COCCOCCOCCOCCOCCOCCOCc4cn(CCSc5nc6c(=O)n7cc(-c8ccccc8)[nH]c7nc6n5[C@@H]5OC6CO[PH](O)(O)O[C@H]6C5O)nn4)nn3)n([C@@H]3OC4CO[PH](O)(O)O[C@H]4C3O)c2nc2[nH]c(-c3ccccc3)cn12 (stereo partly drawn) [compound 23, β-Phenyl-1,N^2-ethenoguanosine-3′,5′-cyclic monophosphate-[8-thioethyl-(1-[1,2,3]-triazole-4-yl)-methoxy-(hexaethoxy)-methyl-(4-[1,2,3]-triazole-1-yl)-ethylthio-8]-β-phenyl-1,N^2-ethenoguanosine-3′,5′-cyclic monophosphate]
- relative PKG Iβ activation compared to cGMP (cGMP set as 1): ≥ 2832 fold
